System: mice
Test: Measurement of neurotoxicity (rotarod, Dunham and Miya)
Type: in vivo
Conditions: po, rotarod 6 rpm
Procedure: The measurement of neurotoxicity of the test compounds was conducted by the method of Dunham and Miya [Dunham, N. W. and Miya, T. S. 1957. A note on a simple apparatus for detecting neurological deficit in rats and mice. J. Am. Pharm. Assoc. (Baltimore) 46: 208-209]. In the method, motor abilities of the test animals can be determined by observing whether the test animals can walk without falling from a rotator, thereby determining the value of neurotoxicity of each compound. […] They were pre-trained on the rotarod (Rotarod; Columbus instrument, rota-max, USA) at 6 rpm for 5 min 24 hr prior to the test. The peak time was determined by administration test material's random dose for 0.5, 1, 2, 4 hour. […] The ratio of TD50 to ED50 (TD50/ED50) is called as a protective index, and useful as a parameter for comparison of pharmaceutical efficacy and neurotoxicity.

`CC(OC(N)=O)C(O)c1ccccc1Cl` (racemic) [Compound 3, 1-(2-chlorophenyl)-1-hydroxypropyl-2-carbamate] showed a TD50 of 378.3 mg/kg.

Compound `C[C@H](OC(N)=O)[C@@H](O)c1ccccc1Cl` [Compound 1, 1-(2-chlorophenyl)-(S)-1-hydroxypropyl-(S)-2-carbamate] has a TD50 of 218.1 mg/kg.

`C[C@@H](OC(N)=O)[C@H](O)c1ccccc1Cl` [Compound 2, 1-(2-chlorophenyl)-(R)-1-hydroxypropyl-(R)-2-carbamate] gave a TD50 of 372.0 mg/kg.

With `C[C@H](OC(N)=O)[C@H](O)c1ccccc1Cl` [Compound 5, 1-(2-chlorophenyl)-(R)-1-hydroxypropyl-(S)-2-carbamate] the TD50 was 275.2 mg/kg.

Compound `C[C@H](OC(N)=O)[C@@H](O)c1c(Cl)cccc1Cl` [Compound 37, 1-(2,6-dichlorophenyl)-(S)-1-hydroxypropyl-(S)-2-carbamate] has a TD50 of 131.6 mg/kg.

Source: patent publication US9624164B2, “Phenyl carbamate compounds for use in preventing or treating epilepsy” (Bio-Pharm Solutions Co., Ltd., priority 2011, dated 2017)
